Test results as given in PubChem BioAssay AID504842 (National Center for Advancing Translational Sciences (NCATS), 2011).
Only a part is listed here, and it is no random draw. Calls of active or inactive are those of the source. The call rests on the fitted dose curve; in most records, active means well fitted inhibition curve with a large enough effect; inconclusive means small, poorly fitted or top-dose-only effect; inactive means flat fitted curve, though single readings scatter.
Further: nearly all actives have a fitted effect of over 80% in size.
On the % scale 0 is the no-effect control and ±100 the full control effect.

Each compound was assayed on Chaperonin Mm-Cpn (Methanococcus maripaludis) (assay: Inhibitors of TCP-1 ring complex (TRiC) of Methanococcus maripaludis (MmCpn): qHTS). Conditions: purified Mm-Cpn ATPase, ADP Transcreener TR-FRET; at 76.9 µM (top of the series).
From the text: The eukaryotic chaperonin TRiC (for TCP-1 ring complex) is an essential and conserved chaperone required for the folding and activation of 10-15% of the proteins encoded by the human genome. […] The TRiC complex consist of two stacked 7-9 membered rings, each containing a central cavity. Substrates are folded within the cavity in an ATP-dependent manner. TRiC is a complex of eight different, essential proteins. As each of the genes encoding the eight subunits is essential for cell viability and no protocol has been developed to over-express this enzyme to high levels. That is why several groups studying the TRiC chaperonin have turned to the archaeal homolog of TRiC, Methanococcus maripaludis (Mm-CPN), and have used this enzyme as a model system for the study of the type II chaperonin family. Small molecule inhibitors of the Mm-CPN enzyme would be extremely useful to study the mechanism of chaperonin activity. Importantly, TRiC and Mm-CPN both require ATP hydrolysis for function. Furthermore, the ATP binding sites are highly conserved among these type II chaperonins. This provides us with an easy, well tested and straightforward assay to identify inhibitors of chaperonin activity. The Mm-CPN assay was developed in 1536-well plate format using the HTRF Transcreener ADP assay kit (Cisbio, Bedford, MA). This assay applied the time resolved fluorescence resonance energy transfer (TR-FRET) principle. ATP in the presence of Mm-CPN is converted to ADP + Pi. An antibody labeled with Eu3+-Cryptate specific and bound to ADP labeled with […] (d2) competes with the unlabeled ADP generated by Mm-CPN. The resulting TR-FRET signal is inversely proportional to the concentration of ADP in the sample. In this assay a reduction in TR-FRET signal is observed with ATP turnover. NIH Chemical Genomics Center [NCGC] NIH Molecular Libraries Probe Centers Network [MLPCN] MLPCN Grant: DA030554-01A1 Assay Submitter (PI): Judith Frydman, Stanford University
Purified Mm-CPN was supplied by the laboratory of Dr. Judith Frydman. Protein samples were stored at -80C as single use aliquots. Protein was thawed in ambient temperature water bath and placed on ice once thawed. Buffer was prepared fresh day of screen. The buffer composition below was used to prepare the working solution of the Mm-CPN protein and ATP substrate. The buffer is comprised of 30 mM TRIS pH 7.4, 100mM KCl, 5mM MgCl2, and 1mM DTT. A final concentration of 25nM Mm-CPN and 10uM ATP per well were used in the screen. Instructions according to the manufacturer were followed for the ADP Transcreener kit. Used 1536 well Greiner white, medium binding (MB), solid bottom plates. Plates were read on the PerkinElmer EnVision plate reader using Excitation = 320 nm and Emission = […], 665 nm. Protocol- 1.Dispense 1.5ul per well of working [Mm-CPN] = 50nM (or 75 ng / well) 2.Spin plate at 1000 rpm for 30 seconds 3.23nl of compound transferred per well 4.Incubate at 37degC for 10 minutes 5.Dispense 1.5ul per well of working [ATP] = 20uM 6.Incubate at 37degC for 30 minutes 7.Dispense 3ul per well of Anti-ADP Cryptate / ADP-d2 mix (prepared as instructed by Cisbio) 8.Incubate at ambient for 30 minutes 9.Read using EnVision
O=[N+]([O-])c1cc([N+](=O)[O-])c(NCC2CCS(=O)(=O)C2)c([N+](=O)[O-])c1 (configuration not stated) was tested, and the activity, negative = inhibition was inactive: 0.881%.
In the case of O=C(NCC1(N2CCCCC2)CCCCC1)c1cccc(C(F)(F)F)c1, the activity, negative = inhibition was inactive: -1.41%.
For CCN1CCC(Nc2ccc(Cl)cc2)CC1, the activity, negative = inhibition was inactive: 0.712%.
With N#CC1(Nc2ccccc2)CCN(CCc2ccccc2)CC1 the activity, negative = inhibition was inactive: 0.934%.
With O=C(NCC1(N2CCCCC2)CCCCC1)c1cccc([N+](=O)[O-])c1 the activity, negative = inhibition was inactive: -1.88%.
In the case of CSc1ccc(C(=O)NCC2(N3CCOCC3)CCCCC2)cc1, the activity, negative = inhibition was inactive: -0.36%.
For O=C(NCC1(N2CCCCC2)CCCCC1)c1ccc(OC(F)F)cc1, the activity, negative = inhibition was inactive: 0.0103%.
In the case of CN(C)C1(CNC(=O)c2cccc(C#N)c2)CCCCC1, the activity, negative = inhibition was inactive: 0.898%.
In the case of c1ccc(CN2CCC(Nc3ccccc3)CC2)cc1, the activity, negative = inhibition was inactive: -0.326%.
CCCN1CCC(Nc2cc(OC)cc(OC)c2)CC1 was tested, and the activity, negative = inhibition was inactive: 0.645%.
In the case of CCOC(=O)C(CC)C1=NC(C)(C)Cc2ccccc21.O=[N+]([O-])c1cc([N+](=O)[O-])c(O)c([N+](=O)[O-])c1 (configuration not stated), the activity, negative = inhibition was inactive: 1.6%.
N#Cc1ccc(C(=O)NCC2(N3CCCCC3)CCCCC2)cc1 was tested, and the activity, negative = inhibition was inactive: -1.98%.
With CC(C)(C)OC(=O)N1CCC(N(C(=O)c2ccccc2)c2ccc(Cl)cc2)CC1 the activity, negative = inhibition was inactive: -0.17%.
With CCc1cc(C(=O)NCC2(N3CCCCC3)CCCCC2)sc1C the activity, negative = inhibition was inactive: -0.498%.
With O=C(OC1CN2CCC1CC2)C1c2ccccc2C=Cc2ccccc21 (configuration not stated) the activity, negative = inhibition was inactive: 2.14%.
In the case of O=C(O)c1cccc(Nc2c([N+](=O)[O-])cc([N+](=O)[O-])cc2[N+](=O)[O-])c1, the activity, negative = inhibition was inactive: 0.883%.
CCOC(=O)N1CCC(Nc2ccc(C)cc2)CC1 was tested, and the activity, negative = inhibition was inactive: 0.0546%.
With N/C(=N\O)c1c(N)no[n+]1[O-] the activity, negative = inhibition was inactive: 1.02%.
For COc1ccc(C(=O)NCC2(N3CCOCC3)CCCCC2)cc1OC, the activity, negative = inhibition was inactive: -1.51%.
With COc1cc(C(=O)NCC2(N3CCOCC3)CCCCC2)cc(OC)c1C the activity, negative = inhibition was inactive: 1.56%.
With O=C(NCC1(N2CCOCC2)CCCCC1)c1cc(Br)ccc1Cl the activity, negative = inhibition was inactive: 0.97%.
CN1CCC(Nc2ccc(Cl)cc2)CC1 was tested, and the activity, negative = inhibition was inactive: 0.503%.
CCCOc1ccc(C)cc1CN(CCCl)CCCl was tested, and the activity, negative = inhibition was inactive: -0.569%.
In the case of COc1cccc(C(=O)N(c2cc(C)cc(C)c2)C2CCN(C(=O)OC(C)(C)C)CC2)c1, the activity, negative = inhibition was inactive: 1.3%.
With COc1cc(OC)cc(C(=O)NCC2(N3CCOCC3)CCCCC2)c1 the activity, negative = inhibition was inactive: -0.0752%.
With CCC(CO)(C(=O)OC1CN2CCC1CC2)c1ccccc1 (configuration not stated) the activity, negative = inhibition was inactive: -1.1%.
CC(C)(C)OC(=O)N1CCC(Nc2ccccc2)CC1 was tested, and the activity, negative = inhibition was inactive: -5.26%.
With O=C(O)C1(Nc2ccccc2)CCN(Cc2ccccc2)CC1 the activity, negative = inhibition was inactive: -0.947%.
In the case of CCCOc1ccc(C(=O)NCC2(N(C)C)CCCCC2)cc1, the activity, negative = inhibition was inactive: -0.163%.
For CCOc1ncccc1C(=O)NCC1(N2CCOCC2)CCCCC1, the activity, negative = inhibition was inactive: 1.17%.
With CN1CCC(Nc2ccc(F)c(Cl)c2)CC1 the activity, negative = inhibition was inactive: 0.607%.
In the case of O=C(NCC1(N2CCCCC2)CCCCC1)c1ccco1, the activity, negative = inhibition was inactive: -7.88%.
CN(C)c1ccc(C(=O)NCC2(N3CCCCC3)CCCCC2)cc1 was tested, and the activity, negative = inhibition was inactive: -5.09%.
For CCN1CCC(Nc2cccc(F)c2)CC1, the activity, negative = inhibition was inactive: -2.02%.
In the case of Cc1ccc(C(=O)NCC2(N3CCCCC3)CCCCC2)o1, the activity, negative = inhibition was inactive: -1.22%.
With Fc1ccccc1NC1CCN(Cc2ccccc2)CC1 the activity, negative = inhibition was inactive: 1.58%.
In the case of COc1cc(OC)cc(C(=O)NCC2(N3CCCCC3)CCCCC2)c1, the activity, negative = inhibition was inactive: -0.286%.
